The text below walks through data of patent publication US8696867B2, “Disulfo-type fluorescent whitening agents” (Blankophor GmbH & Co. KG, priority 2009, dated 2014).

The nature of this data set: Solubility of fluorescent whitening agent in distilled water (saturated solution). Type of data set: physicochemical. As for the experimental part: The solubility of the fluorescent whitening agents was determined as follows: a dry powder of fluorescent whitening agent was added to 50 ml of distilled water until the saturation point was reached. The thus obtained saturated solution was filtered, dried and the dried residue was weighted.
The following results were obtained: 27.8% for FWA 1; 24.2% for FWA 2; and 6.9% for Comparative 1, all at ambient temperature (about 22° C.). The indicated percentages are based on the amount of grams of fluorescent whitening agent dissolved in 100 g of the corresponding saturated FWA solution.

As for `O=S(=O)([O-])c1cc(Nc2nc(Nc3ccccc3)nc(N(CCO)CCO)n2)ccc1/C=C/c1ccc(Nc2nc(Nc3ccccc3)nc(N(CCO)CCO)n2)cc1S(=O)(=O)[O-].[Na+].[Na+]` [Comparative 1, reference compound], the solubility is recorded as 6.9%.
